Drawing on US7713994B2 (Wyeth LLC, priority 2005, dated 2010), this text covers IC50 for 14 compounds.

Sequences of proteins named here, by UniProt entry; tags and fusion partners are left off.
UniProt P11802, whole entry, species assumed: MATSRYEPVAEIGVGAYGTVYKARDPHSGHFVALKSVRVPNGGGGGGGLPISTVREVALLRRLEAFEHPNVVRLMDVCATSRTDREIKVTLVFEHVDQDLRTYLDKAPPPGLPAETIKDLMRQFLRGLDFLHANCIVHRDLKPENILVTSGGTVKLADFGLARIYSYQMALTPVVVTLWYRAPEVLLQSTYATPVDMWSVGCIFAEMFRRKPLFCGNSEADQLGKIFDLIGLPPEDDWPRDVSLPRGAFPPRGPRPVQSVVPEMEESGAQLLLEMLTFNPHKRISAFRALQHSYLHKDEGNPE
UniProt P06493, whole entry: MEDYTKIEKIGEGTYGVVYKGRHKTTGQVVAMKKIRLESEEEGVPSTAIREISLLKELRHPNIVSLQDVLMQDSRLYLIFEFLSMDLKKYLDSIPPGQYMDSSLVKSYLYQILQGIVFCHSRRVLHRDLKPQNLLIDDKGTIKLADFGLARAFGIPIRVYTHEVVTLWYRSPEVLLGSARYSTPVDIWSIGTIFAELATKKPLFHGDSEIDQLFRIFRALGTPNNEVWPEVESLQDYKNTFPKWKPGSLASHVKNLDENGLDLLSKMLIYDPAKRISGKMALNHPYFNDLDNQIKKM

Like-named read-outs stand apart in the source and are kept apart here.

One test addresses T1, cyclin E/CDK2 enzyme (Homo sapiens, UniProt P24941).
T1 construct: made in house; host or cells: Sf9 insect cells, recombinant baculovirus
Nature of the test: CDK2 ELISA kinase assay (phospho-Rb ser 795 detection). It is filed as biochemical. Particulars: In Vitro Enzyme Assays. Here is the method: • 1. High-binding ELISA microtiter plates (Costar) were coated with 40 μl of the kinase substrate (GST fusion of C-terminal fragment of the retinoblastoma susceptibility gene product) diluted to 10 μg/ml in tris-buffered saline (TBS), overnight at 4° C. • 2. Non-specific binding sites were blocked for 1 hour at 4° C. with Superblock in TBS (Pierce), and the plates rinsed with water. • 3. For the screen, 1.5 μl of test compound (200 μg/ml stock in 20% DMSO/20 mM HEPES, pH 7.5) was added to each well. Final dose of the test compound in the assay was 10 ug/ml. […] The kinase reaction (30 μl) was dispensed into each well. Reactions contained 200 μM ATP, 0.5 mg/ml bovine serum albumin (BSA; Sigma), and 0.5 μl partially purified cyclin D1/cdk 4 enzyme*. The enzyme complex is expressed in insect cells (Sf9) infected with recombinant baculovirus and partially purified using ammonium sulfate fractionation. Reaction volumes were adjusted to 30 μl with kinase assay buffer (50 mM HEPES, pH 7.5, 10 mM MgCl2, 5% glycerol, 10 mM 2-mercaptoethanol). • *: For CDK2 assay, 1.0 μl cyclin E/CDK2 enzyme (diluted 1:1000 in kinase assay buffer) was used. The enzyme is isolated from insect cells (Sf9) infected with recombinant baculovirus and partially purified using ammonium sulfate fractionation. For CDK1 assay, 0.08 μl cyclin B/CDK1 enzyme [New England BioLabs; the enzyme is isolated from insect cells (Sf9) infected with recombinant baculovirus carrying human cdc 2 and human cyclin B] was used.
• Hunter, T. and Pines, J. Cyclins and Cancer II: Cyclin D and CDK come of age. Cell 79, 573-582 (1994). • Rao, R. N. Targets for cancer therapy in the cell cycle pathway. Curr. Opinion in Oncol. 8, 516-524 (1996). • 5. Plates were incubated at 30° C. for 1 hour. • 6. The reaction mixture was removed by aspiration and replaced with 250 μl TBS containing 0.1% Tween-20 and 5% nonfat dry milk (blocking buffer). The plates were incubated at 4° C. for 1 hour. • 7. The blocking buffer was removed and replaced with 50 μl of the primary antibody [anti-phospho-Rb ser 795 (New England BioLabs) diluted 1:1000 in blocking buffer]. Incubation was at 4° C. for 16-20 hours. • 8. […] The reaction was stopped by the addition of 2N sulfuric acid (100 μl) and the absorbance values read at 450 nm in a microplate reader (Molecular Devices). […] The percentage of the absorbance value in wells containing the test compound relative to control wells (no test agent) was determined. • 2. IC50 values of selected compounds were determined from inhibition curves, after subtracting background values (no substrate).
For orientation: ELISA stands for enzyme-linked immunosorbent assay.

The next test concerns BT474. Briefly: Cytotoxicity assay (SRB), BT474. It is filed as cell-based. Particulars: Homo sapiens, BT-474, 144 h, BT474 cells, 6 days, read-out: In Vitro Cellular Activity IC50 BT474. On the procedure: (§1) BT474, HCT-116, LoVo and MCF-7 were maintained under 7% CO2 in RPMI 1640 medium supplemented with 10% fetal bovine serum and 50 µg/ml gentamicin.
(§2) Cells were plated in 96-well microtiter dishes (12000 cells/well for BT474, 4000 cells/well for HCT-116, 6000 cells/well for LoVo and 6000 cells/well for MCF-7) in RPMI 1640 medium containing 5% fetal bovine serum and 50 µg/ml gentamicin. The cells were allowed to incubate overnight at 37° C., 7% CO2. Compound dilutions were prepared using the same medium. HCT-116, LoVo and MCF-7 cells were cultured for three days and BT474 cells were cultured for 6 days, in the presence of each compound dilution. Untreated cells were included as controls. The percentage of surviving cells was determined using a protein binding dye (sulforhodamineB, SRB) assay. Cellular protein was precipitated in each well by the addition of 0.05 ml of 50% cold trichloroacetic acid (TCA). After 1 hour, the plates were washed extensively in dH2O and dried. The sulforhodamineB dye solution (0.08 mL of 0.4% SRB in 1% acetic acid) was added to each well, kept at room temperature for ten minutes, then washed in 1% acetic acid and dried. The dye was dissolved in 10 mM Tris-HCl (150 uL) and the absorbency read at 540 nm.

The next test concerns HCT-116. Nature of the test: Cytotoxicity assay (SRB), HCT-116. It is filed as cell-based. Particulars: Homo sapiens, HCT-116, 72 h, HCT116 cells, read-out: In Vitro Cellular Activity IC50 HCT116. Here is the method:
as §1, §2

The subject of another test is MCF-7. Nature of the test: Cytotoxicity assay (SRB), MCF-7. The test is classed as cell-based. Particulars: Homo sapiens, MCF7, 72 h, MCF-7 cells, read-out: In Vitro Cellular Activity IC50 MCF-7. On the procedure:
as §1, §2

Another test concerns the target T2, cyclin D1/cdk 4 enzyme (Homo sapiens, UniProt P11802).
T2 construct: made in house; host or cells: Sf9 insect cells, recombinant baculovirus
Briefly: CDK4 ELISA kinase assay (phospho-Rb ser 795 detection). Particulars: In Vitro Enzyme Assays, 200 μM ATP. It is filed as biochemical. Here is the method: (§3) • 1. High-binding ELISA microtiter plates (Costar) were coated with 40 μl of the kinase substrate (GST fusion of C-terminal fragment of the retinoblastoma susceptibility gene product) diluted to 10 μg/ml in tris-buffered saline (TBS), overnight at 4° C. • 2. Non-specific binding sites were blocked for 1 hour at 4° C. with Superblock in TBS (Pierce), and the plates rinsed with water. • 3. For the screen, 1.5 μl of test compound (200 μg/ml stock in 20% DMSO/20 mM HEPES, pH 7.5) was added to each well. Final dose of the test compound in the assay was 10 ug/ml. […] The kinase reaction (30 μl) was dispensed into each well. Reactions contained 200 μM ATP, 0.5 mg/ml bovine serum albumin (BSA; Sigma), and 0.5 μl partially purified cyclin D1/cdk 4 enzyme*. The enzyme complex is expressed in insect cells (Sf9) infected with recombinant baculovirus and partially purified using ammonium sulfate fractionation. […]
(§4) • Hunter, T. and Pines, J. Cyclins and Cancer II: Cyclin D and CDK come of age. […] The reaction was stopped by the addition of 2N sulfuric acid (100 μl) and the absorbance values read at 450 nm in a microplate reader (Molecular Devices). […] The percentage of the absorbance value in wells containing the test compound relative to control wells (no test agent) was determined. • 2. IC50 values of selected compounds were determined from inhibition curves, after subtracting background values (no substrate).

In the next test the target is T3, cyclin B/CDK1 enzyme (Homo sapiens, UniProt P06493).
T3 construct: purchased New England BioLabs; host or cells: Sf9 insect cells, recombinant baculovirus
Nature of the test: CDK1 ELISA kinase assay (phospho-Rb ser 795 detection). It is filed as biochemical. Particulars: In Vitro Enzyme Assays. Here is the method:
as §3, §4

As for `CN1CCN(Cc2ccc(N/C=C3\C(=O)NC(=O)c4ccccc43)cc2)CC1` [Example 20], the IC50 – broadly, the concentration needed to halve the response being measured – on cyclin E/CDK2 enzyme was determined as 26 µM. As to `CC(=O)Oc1ccc(CN/C=C2\C(=O)NC(=O)c3ccccc32)cc1OC(C)=O` [Example 47, 2-(Acetyloxy)-4-({[(Z)-(1,3-dioxo-2,3-dihydroisoquinolin-4(1H)-ylidene)methyl]amino}-methyl)phenyl acetate], the IC50 at cyclin E/CDK2 enzyme came to 18.1 µM; in the test on BT474, 20 µM. Consider `CN1CCN(c2ccc(N/C=C3\C(=O)NC(=O)c4ccc(I)cc43)cc2)CC1` [Example 81, (4Z)-6-Iodo-4-({[4-(4-methylpiperazin-1-yl)phenyl]amino}methylene)isoquinoline-1,3(2H,4H)-dione], for which the results for the half-maximal inhibitory concentration (IC50) in the test with HCT-116 (three days) and in the test with MCF-7 (three days) were 2.8 µM and 2.5 µM, respectively.

Take `O=C1NC(=O)c2ccc(-c3ccccc3)cc2/C1=C/Nc1ccc(CN2CCCCC2)cc1` [Example 95]: the results for the IC50 with HCT-116 (three days) and in the test with MCF-7 (three days) were 2.4 µM and 2.9 µM, respectively. For the compound `O=C1NC(=O)c2ccc(-c3ccc(O)cc3)cc2/C1=C/Nc1ccc(CN2CCCCC2)cc1` [Example 103], in the test with HCT-116 (three days), the IC50 was determined as 1.6 µM.

`N#Cc1ccc2c(c1)/C(=C/Nc1ccc(CN3CCCCC3)cc1)C(=O)NC2=O` [Example 110, (4Z)-1,3-Dioxo-4-({[4-(piperidin-1-ylmethyl)phenyl]amino}methylene)1,2,3,4-tetrahydroisoquinoline-6-carbonitrile]: the IC50 against cyclin D1/cdk 4 enzyme turned out to be 15.8 µM; on cyclin E/CDK2 enzyme it was 26.5 µM; against cyclin B/CDK1 enzyme, 15.8 µM. Turning to `O=C1NC(=O)c2ccc(Nc3ccccc3)cc2/C1=C/Nc1ccc(CN2CCCCC2)cc1` [Example 128, (4Z)-6-Anilino-4-({[4-(piperidin-1-ylmethyl)phenyl]amino}methylene)isoquinoline-1,3(2H,4H)-dione], the IC50 amounted to 1.5 µM in the test with HCT-116 (three days) and 2.3 µM in the test on MCF-7 (three days). In the same order, the values of `C[C@@H]1CN(c2ccc(N/C=C3\C(=O)NC(=O)c4ccc(I)cc43)cc2)C[C@H](C)N1` [Example 216, (4Z)-4-({[4-(3,5-Dimethylpiperazin-1-yl)phenyl]amino}methylene)-6-iodoisoquinoline-1,3(2H,4H)-dione] are 0.76 µM and 1.6 µM. As to `C[C@@H]1CN(c2ccc(N/C=C3\C(=O)NC(=O)c4ccc(I)cc43)cc2)C[C@H](C)N1C` [Example 234, (4Z)-6-Iodo-4-[({4-[(3R,5S)-3,4,5-trimethylpiperazin-1-yl]phenyl}amino)methylene]-isoquinoline-1,3(2H,4H)-dione], the IC50 in the test on HCT-116 (three days) was 2.1 µM; in the test on MCF-7 (three days) it was 1.3 µM. As for `CC1CN(c2ccc(N/C=C3\C(=O)NC(=O)c4ccc([N+](=O)[O-])cc43)cc2)CC(C)N1` (stereo not shown) [Example 235, (4Z)-4-({[4-(3,5-Dimethylpiperazin-1-yl)phenyl]amino}methylene)-6-nitroisoquinoline-1,3(2H,4H)-dione], at cyclin E/CDK2 enzyme, the half-maximal inhibitory concentration (IC50) stood at 23.1 µM. For the compound `CC1CN(c2ccc(N/C=C3\C(=O)NC(=O)c4ccc(I)cc43)cc2)CCN1C` (stereo not shown) [Example 248, (4Z)-4-({[4-(3,4-Dimethylpiperazin-1-yl)phenyl]amino}methylene)-6-iodoisoquinoline-1,3(2H,4H)-dione], the IC50 in the test on MCF-7 (three days) amounted to 1.9 µM. Take `CN1CCN(c2ccc(N/C=C3\C(=O)NC(=O)c4ccc(-c5ccoc5)cc43)cn2)CC1` [Example 249, (4Z)-6-(3-Furyl)-4-({[6-(4-methylpiperazin-1-yl)pyridin-3-′yl]amino}methylene)isoquinoline-1,3(2H,4H)-dione]: the IC50 stood at 2.1 µM with HCT-116 (three days) and 1.7 µM in the test on MCF-7 (three days). With `CN1CCN(c2ccc(N/C=C3\C(=O)NC(=O)c4ccc(-c5ccoc5)cc43)nc2)CC1` [Example 443, (4Z)-6-(3-Furyl)-4-({[5-(4-methylpiperazin-1-yl)pyridin-2-yl]amino}methylene)isoquinoline-1,3(2H,4H)-dione], the figures for the IC50 with HCT-116 (3 days) and in the test on MCF-7 (3 days) were 0.76 µM and 1.6 µM, respectively. Taken in the same sequence, the figures for `CN1CCN(c2ccc(NC=C3C(=O)NC(=O)c4ccc(-c5ccccc5)cc43)cc2)CC1` [Example 831, 4-{[4-(4-Methyl-piperazin-1-yl)-phenylamino]-methylene}-6-phenyl-4H-isoquinoline-1,3-dione] were 2.8 µM and 7.3 µM.
